Laboratory results published in ChEMBL document CHEMBL6182870, “Synthesis and biological activity of 1H-pyrrolo[3,2-g]isoquinolines as Haspin kinase inhibitors” (Bioorg Med Chem, 2025).

Assay: Selectivity index, ratio of IC50 for inhibition of recombinant rat DYRK1A kinase domain (1to 499 residues) extracted from bacteria to IC50 for inhibition of human haspin kinase domain (470 to 798 residues) extracted from bacteria using histone H3 (1 to 21) peptide as substrate

Compound `Cn1cc(-c2ccncc2)c2cc3ccncc3cc21` has a Ratio IC50 of 14.4.
